pIC50: −log10 of the molar value.
Key:
dopamine transporter [1] = molecular target: T1, dopamine transporter (Rattus norvegicus, UniProt P23977); test: In vitro inhibition of 3H-WIN 35428 binding
T1 construct: Corpi striati from male Wistar rats (150-200 g) are homogenized; from tissue; host or cells: rat striatal synaptosomes (P2 pellet)

By UniProt entry, the sequences of proteins in these tests, tags left out.
UniProt P23977, whole entry: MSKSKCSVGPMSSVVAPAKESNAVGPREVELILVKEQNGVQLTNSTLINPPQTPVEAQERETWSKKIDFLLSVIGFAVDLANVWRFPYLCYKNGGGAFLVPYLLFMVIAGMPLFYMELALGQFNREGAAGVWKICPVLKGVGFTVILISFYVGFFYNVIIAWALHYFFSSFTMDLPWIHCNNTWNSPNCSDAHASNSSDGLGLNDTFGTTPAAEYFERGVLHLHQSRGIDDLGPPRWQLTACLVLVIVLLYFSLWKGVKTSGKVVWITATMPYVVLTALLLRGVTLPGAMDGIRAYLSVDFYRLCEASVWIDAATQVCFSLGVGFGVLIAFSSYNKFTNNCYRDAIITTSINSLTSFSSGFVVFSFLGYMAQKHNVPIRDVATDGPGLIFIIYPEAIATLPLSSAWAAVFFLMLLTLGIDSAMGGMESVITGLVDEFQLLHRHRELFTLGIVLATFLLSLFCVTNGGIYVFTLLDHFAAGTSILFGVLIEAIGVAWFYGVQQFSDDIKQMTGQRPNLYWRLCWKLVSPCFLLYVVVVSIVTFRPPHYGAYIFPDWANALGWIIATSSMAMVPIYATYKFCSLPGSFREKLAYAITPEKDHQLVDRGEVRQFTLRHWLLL

dopamine transporter [2] = molecular target: T1, dopamine transporter; test: In vitro inhibition of 3H-dopamine (3H-DA) uptake in striatal synaptosomes; assay type: biochemical
Experimental: Monoamine oxidase activity will be inhibited in the presence of pargyline. The homogenate is centrifuged at 1000×g for 10 min. The resulting supernatant is then centrifuged at 27,000×g for 50 min and the supernatant is discarded.
After incubation the samples are poured directly onto Whatman GF/C glass fibre filters under suction. The filters are then washed three times with 5 ml of ice-cold 0.9% (w/v) NaCl solution. The amount of radioactivity on the filters is determined by conventional liquid scintillation counting. Specific uptake is calculated as the difference between total uptake and non-specific uptake.

Molecule `CCOC[C@@H]1[C@@H](c2ccc(Cl)c(Cl)c2)C[C@@H]2CC[C@H]1N2C` [(1R, 2R, 3S)-2-ethoxymethyl-3-(3,4-dichlorophenyl)tropane] has a pIC50 (dopamine transporter [1]) of 7.46 and a pIC50 (dopamine transporter [2]) of 8.10.
